In experiment [1] the target is human PI3Kα (Homo sapiens (Human), UniProt P42336). Description: Biochemical assay PI3Kalpha (KinaseGlo luminescence). Particulars: 1 μM ATP, read-out: PI3Ka/IC50. From the text: (§1) Cancer Ther. accepted). […] (L-alpha-phosphatidylinositol (PI), Liver, Bovine) were obtained from Avanti Polar Lipid (Cat. […] (Avanti, Cat. No. 840046X) or L-α-phosphatidylinositol (PI) was obtained from Avanti Polar Lipid (Cat. […] Luminescence is a well established readout to determine ATP concentrations and can thus be used to follow the activity of many kinases regardless of their substrate. The Kinase Glo Luminescent Kinase Assay (Promega, Madison/WI, USA) is a homogeneous HTS method of measuring kinase activity by quantifying the amount of ATP remaining in solution following a kinase reaction. 50 nL of compound dilutions were dispensed onto black 384-well low volume Non Binding Styrene (NBS) plates (Costar Cat. No. […] L-α-phosphatidylinositol (PI), provided as 10 mg/ml solution in methanol, was transferred into a glass tube and dried under nitrogen beam. […] NVP-BGT226 was used as a reference compound and included in all assay plates in the form of 16 dilution points in duplicate. […] All fits were performed with the program XLfit4 (ID Business Solutions, Guildford, UK).

By UniProt entry, the sequences of proteins in these tests, tags left out. Residues count along the entry.
UniProt P42336, 21-1068: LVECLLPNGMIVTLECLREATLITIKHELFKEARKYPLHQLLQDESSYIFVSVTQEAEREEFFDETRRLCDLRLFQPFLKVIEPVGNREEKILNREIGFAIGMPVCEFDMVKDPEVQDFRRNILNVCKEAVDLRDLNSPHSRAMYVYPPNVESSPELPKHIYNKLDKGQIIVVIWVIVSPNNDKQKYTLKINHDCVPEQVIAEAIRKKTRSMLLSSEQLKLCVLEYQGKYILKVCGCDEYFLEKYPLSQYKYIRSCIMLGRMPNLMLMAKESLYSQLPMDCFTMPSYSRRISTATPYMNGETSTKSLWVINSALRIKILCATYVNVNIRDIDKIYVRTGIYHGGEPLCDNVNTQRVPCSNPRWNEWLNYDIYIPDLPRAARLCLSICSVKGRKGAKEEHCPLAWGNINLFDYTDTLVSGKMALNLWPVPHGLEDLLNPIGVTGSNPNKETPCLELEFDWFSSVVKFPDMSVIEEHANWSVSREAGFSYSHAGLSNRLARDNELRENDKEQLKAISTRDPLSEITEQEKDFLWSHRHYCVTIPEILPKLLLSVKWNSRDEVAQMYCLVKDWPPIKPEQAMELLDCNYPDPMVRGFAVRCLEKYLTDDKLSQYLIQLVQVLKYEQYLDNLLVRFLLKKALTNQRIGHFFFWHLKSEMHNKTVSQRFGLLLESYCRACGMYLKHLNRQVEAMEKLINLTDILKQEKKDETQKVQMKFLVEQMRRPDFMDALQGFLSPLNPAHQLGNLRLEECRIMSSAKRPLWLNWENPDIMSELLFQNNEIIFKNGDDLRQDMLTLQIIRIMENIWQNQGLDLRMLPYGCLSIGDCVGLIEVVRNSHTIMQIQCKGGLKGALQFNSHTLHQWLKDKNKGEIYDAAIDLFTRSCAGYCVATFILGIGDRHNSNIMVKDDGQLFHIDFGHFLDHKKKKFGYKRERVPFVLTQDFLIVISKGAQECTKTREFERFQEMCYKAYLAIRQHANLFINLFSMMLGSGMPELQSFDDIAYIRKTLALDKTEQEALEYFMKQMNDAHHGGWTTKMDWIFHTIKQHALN
UniProt P42336, whole entry: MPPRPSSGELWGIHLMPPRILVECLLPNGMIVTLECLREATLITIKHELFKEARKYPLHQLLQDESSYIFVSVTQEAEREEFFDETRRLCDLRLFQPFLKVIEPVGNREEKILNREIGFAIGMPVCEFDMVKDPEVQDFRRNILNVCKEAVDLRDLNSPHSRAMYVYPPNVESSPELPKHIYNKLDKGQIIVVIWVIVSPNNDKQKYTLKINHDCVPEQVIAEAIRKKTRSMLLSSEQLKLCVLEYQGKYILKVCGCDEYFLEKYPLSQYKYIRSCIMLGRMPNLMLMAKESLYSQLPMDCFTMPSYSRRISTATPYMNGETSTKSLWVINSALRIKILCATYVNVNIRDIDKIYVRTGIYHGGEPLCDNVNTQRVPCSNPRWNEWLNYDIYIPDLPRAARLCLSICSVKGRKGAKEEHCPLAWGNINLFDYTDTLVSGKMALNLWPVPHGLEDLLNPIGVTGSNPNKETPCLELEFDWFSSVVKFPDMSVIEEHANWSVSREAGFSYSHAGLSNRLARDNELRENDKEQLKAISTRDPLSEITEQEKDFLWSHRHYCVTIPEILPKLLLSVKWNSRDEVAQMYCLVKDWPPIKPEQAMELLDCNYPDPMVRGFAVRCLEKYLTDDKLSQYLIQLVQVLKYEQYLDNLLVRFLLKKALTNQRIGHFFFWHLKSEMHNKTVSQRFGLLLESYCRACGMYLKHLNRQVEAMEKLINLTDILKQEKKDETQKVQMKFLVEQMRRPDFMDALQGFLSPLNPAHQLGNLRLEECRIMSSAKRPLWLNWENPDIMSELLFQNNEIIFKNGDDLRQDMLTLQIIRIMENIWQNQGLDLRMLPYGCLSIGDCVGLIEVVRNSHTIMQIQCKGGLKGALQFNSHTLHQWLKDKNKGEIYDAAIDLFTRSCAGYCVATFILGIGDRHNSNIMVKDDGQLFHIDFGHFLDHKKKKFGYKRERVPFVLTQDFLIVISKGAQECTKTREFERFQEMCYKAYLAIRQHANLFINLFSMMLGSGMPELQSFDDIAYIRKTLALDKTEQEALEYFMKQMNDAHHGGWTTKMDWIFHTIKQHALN
UniProt P42338, 2-1070: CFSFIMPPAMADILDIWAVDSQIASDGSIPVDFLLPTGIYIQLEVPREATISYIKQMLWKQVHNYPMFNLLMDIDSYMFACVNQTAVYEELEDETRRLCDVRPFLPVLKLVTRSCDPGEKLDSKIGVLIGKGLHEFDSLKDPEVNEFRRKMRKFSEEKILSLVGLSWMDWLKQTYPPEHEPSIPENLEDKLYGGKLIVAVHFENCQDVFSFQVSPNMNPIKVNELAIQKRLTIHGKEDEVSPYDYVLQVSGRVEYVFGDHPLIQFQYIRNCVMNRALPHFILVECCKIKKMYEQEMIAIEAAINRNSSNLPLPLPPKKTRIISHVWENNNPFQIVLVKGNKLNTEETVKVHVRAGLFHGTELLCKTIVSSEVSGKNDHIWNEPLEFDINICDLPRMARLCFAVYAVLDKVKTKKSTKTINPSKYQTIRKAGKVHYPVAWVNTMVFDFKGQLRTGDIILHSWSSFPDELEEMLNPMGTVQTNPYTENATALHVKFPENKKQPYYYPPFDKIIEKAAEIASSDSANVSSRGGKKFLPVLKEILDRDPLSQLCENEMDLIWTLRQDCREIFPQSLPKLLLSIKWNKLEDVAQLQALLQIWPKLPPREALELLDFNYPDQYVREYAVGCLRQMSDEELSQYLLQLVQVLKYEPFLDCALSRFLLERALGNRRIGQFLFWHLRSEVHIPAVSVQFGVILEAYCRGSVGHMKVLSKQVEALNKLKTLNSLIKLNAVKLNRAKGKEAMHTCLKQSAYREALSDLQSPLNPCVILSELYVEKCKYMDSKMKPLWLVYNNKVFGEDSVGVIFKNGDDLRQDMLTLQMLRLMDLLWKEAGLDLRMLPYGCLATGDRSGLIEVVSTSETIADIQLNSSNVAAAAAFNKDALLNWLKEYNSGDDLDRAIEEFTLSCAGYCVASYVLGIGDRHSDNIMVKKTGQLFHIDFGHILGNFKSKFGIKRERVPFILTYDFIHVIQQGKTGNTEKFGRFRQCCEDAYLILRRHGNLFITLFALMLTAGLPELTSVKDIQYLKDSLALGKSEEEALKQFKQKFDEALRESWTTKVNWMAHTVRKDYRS

Experiment [2] deals with human PI3Kalpha p110 catalytic subunit (Rat-1 cells) (Homo sapiens (Human), UniProt P42336). Description: Cellular assay PI3Kalpha, p-Akt(S473) SureFire in Rat-1_PI3Kalpha cells. The experiment is classed as cell-based. The following applies: p-AKT(Ser473), 1 h treatment; for IC50: read-out: Rat1-PI3Ka/IC50. From the text:
(§2) AlphaScreen (Amplified Luminescent Proximity Homogeneous Assay, ALPHA, Perkin Elmer) is a non-radioactive bead-based proximity assay technology to study biomolecular interactions in a homogenous microtiter plate format. The brand name SureFire denotes AlphaScreen assays that are adapted to quantify the phosphorylation of endogenous cellular proteins in cell lysates, by using matched antibody pairs, which consist of an anti-phospho-kinase and an anti-kinase antibody. The assay allows characterization of kinase signaling in cells as well as measurement of kinase inhibitor effects. The AlphaScreen technology provides several advantages over standard assay techniques such as ELISA, as it avoids time-consuming washing procedures and reduces plate handling. Furthermore, it is miniaturizable at least to a 384-well format and provides sensitivity down to the femtomolar range, dependent on the affinity of the antibodies included in the individual AlphaScreen SureFire assay kit. High sensitivity is reached by an intrinsic amplification mechanism, which involves production of singlet oxygen molecules. SureFire assay kits are commercially available for specific targets and include pairs of validated antibodies (PerkinElmer). This report describes common procedures applied for AlphaScreen SureFire assays and respective semi-automated steps for routine kinase inhibitor profiling in cell-based assays. […]

Experiment [3] addresses human PI3Kβ (Homo sapiens (Human), UniProt P42338). The experiment can be described thus: Biochemical assay PI3Kbeta (KinaseGlo luminescence). Particulars: 1 μM ATP, read-out: PI3Kb/IC50.
Source text: as §1

Experiment [4] concerns the target human PI3Kbeta p110 catalytic subunit (Rat-1 cells) (Homo sapiens (Human), UniProt P42338). Description: Cellular assay PI3Kbeta, p-Akt(S473) SureFire in Rat-1_PI3Kbeta cells. The following applies: p-AKT(Ser473), 1 h treatment; read-out: Rat1-PI3Kb/IC50. It is filed as cell-based.
Source text: as §2, with “(PerkinElmer).” for “(PerkinElmer). This report describes common procedures applied for AlphaScreen SureFire assays and respective semi-automated steps for routine kinase inhibitor profiling in cell-based assays.”

With `CC[C@H]1[C@H](c2ccc(OC)cc2)OC(=O)N1c1cc(-c2cnc(N)nc2C(F)(F)F)nc(N2CCOCC2)n1` (relative stereo) [Example 2, (4S*,5S*)-3-(2′-amino-2-morpholino-4′-(trifluoromethyl)-[4,5′-bipyrimidin]-6-yl)-4-ethyl-5-(4-methoxyphenyl)oxazolidin-2-one], the IC50 worked out at 78 nM in experiment [1] and 1070 nM in experiment [2].
For the compound `CC[C@H]1[C@H](c2cccc(OC)c2)OC(=O)N1c1cc(-c2cnc(N)nc2C(F)(F)F)nc(N2CCOCC2)n1` [Example 6], the IC50 in experiment [2] worked out at 930 nM.
For the compound `COCCOc1ccc([C@@H]2OC(=O)N(c3cc(-c4cnc(N)nc4C(F)(F)F)nc(N4CCOCC4)n3)[C@H]2CO)cc1` [Example 12], the IC50 in experiment [3] was determined as 7 nM; in experiment [4], 64 nM.
As for `Nc1ncc(-c2cc(N3C(=O)O[C@@H](c4ccc(OCCO)cc4)[C@@H]3CO)nc(N3CCOCC3)n2)c(C(F)(F)F)n1` [Example 13], the Rat1-PI3Ka/IC50 in experiment [2] is listed as 0.126 umol I-1.

These data come from patent publication US10202371B2, “Oxazolidin-2-one-pyrimidine derivatives and the use thereof as phosphatidylinositol-3-kinase inhibitors” (Novartis AG, priority 2012, dated 2019).
